The source of these data is ChEMBL document CHEMBL4482311, “Modulators of Prostate-Specific G-Protein Receptor (PSGR/OR51E2) and Methods of Using Same” (2018).

The source made the active and inactive calls. The rule behind the calls is not given here.

This assay deals with T1, Olfactory receptor 51E2 (Homo sapiens) (UniProt Q9H255).
T1 sequence (whole entry): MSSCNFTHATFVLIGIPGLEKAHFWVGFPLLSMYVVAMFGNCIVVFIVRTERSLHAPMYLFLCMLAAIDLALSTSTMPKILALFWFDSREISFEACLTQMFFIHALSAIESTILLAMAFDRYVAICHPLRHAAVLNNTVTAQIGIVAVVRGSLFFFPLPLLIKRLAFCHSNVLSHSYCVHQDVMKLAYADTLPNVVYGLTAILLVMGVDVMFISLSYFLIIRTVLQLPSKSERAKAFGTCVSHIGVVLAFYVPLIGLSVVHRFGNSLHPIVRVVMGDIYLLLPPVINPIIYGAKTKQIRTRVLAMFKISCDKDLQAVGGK
In words: Antagonist activity at PSGR/OR51E2 (unknown origin) expressed in human Hana3A cells co-transfected with CRE-Luc assessed as reduction in 19-OH-AD-induced response by luciferase reporter gene assay. The format is functional, cell-based. For orientation: Reporter assays use an easily measured gene product as a stand-in for the process of interest.

For the molecule `CC1=C(/C=C/C(C)=C/C=C/C(C)=C\C(=O)O)C(C)(C)CCC1`, the inhibition entry was “Active”.
